These results are taken from PMC12293736, “Discovery of N-(6-Methoxypyridin-3-yl)quinoline-2-amine Derivatives for Imaging Aggregated α-Synuclein in Parkinson’s Disease with Positron Emission Tomography” (Cells, 2025).

The target in the assay is PD brain tissues (Homo sapiens, UniProt P37840). Briefly: homologous competitive binding assay of radiotracers, PD tissue. The conditions noted are these: tested as the radiolabelled form.

What is called Kd is the equilibrium constant for the complex coming apart. What is called Ki is the equilibrium dissociation constant of an inhibitor or competing ligand from its target.

Like-named read-outs stand apart in the source and are kept apart here.

Regarding `COc1ccc(Nc2ccc3cc(OC/C=C/I)ccc3n2)cn1` [Compound 8i], the Kd by setting is: (read-out: Kd, high affinity binding site, PD tissues, two-site binding) 1.4 nM; (read-out: Kd, low affinity binding site, PD tissues, two-site binding) 200 nM. Besides, the Ki (read-out: Ki, PD tissues, tritiated radioligand at 0.808 nM concentration) stood at 5.4 nM. For the same molecule, for the setting “two-site binding”, the “Bmax, high affinity binding site, PD tissues” value was 385 nM. For the same molecule, where the note is “two-site binding”, the “Bmax, low affinity binding site, PD tissues” value came to 9.1 µM.
